From ChEMBL document CHEMBL1139871, “Selective urokinase-type plasminogen activator inhibitors. 4. 1-(7-sulfonamidoisoquinolinyl)guanidines” (J Med Chem, 2007) come the findings set out here.

This experiment addresses Urokinase-type plasminogen activator (Homo sapiens, UniProt P00749).
The term Ki denotes the dissociation constant of the complex between target and ligand, obtained from inhibition or displacement. For the compound `CN(CC(=O)O)S(=O)(=O)c1ccc2c(Cl)cnc(N=C(N)N)c2c1`, the Ki came out at 54 nM.

In turn, `NC(N)=Nc1nccc2ccc(S(=O)(=O)Nc3ccccc3)cc12` came in with a Ki of 160 nM.

For `NC(N)=Nc1ncc(Cl)c2ccc(S(=O)(=O)N3CCCC3)cc12`, the affinity corresponds to a Ki of 130 nM.

In turn, `CN(C1(C(=O)O)CCCC1)S(=O)(=O)c1ccc2c(Cl)cnc(N=C(N)N)c2c1` had a Ki of 11 nM.
